# Reference: PubChem BioAssay AID463195 (Sanford-Burnham Center for Chemical Genomics, 2010)
# The list shows a part of the results, in another mix than the full data. Some of these compounds have results that are not shown, active ones among them. Active and inactive are the calls of the source.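 Rule for the calls: active = inhibition of 40% or more at the single tested concentration; inactive = the rest.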
# Test: wild-type TIM10 yeast growth inhibition – luminescence, uHTS, counter-screen for tim10-1 yeast inhibitor project, primary screen (AID 463195);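 note: wild-type TIM10 isogenic control strain grown at permissive 25 °C; 0% = DMSO yeast wells and 100% = minimal medium wells without yeast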
# Details: S. cerevisiae TIM10 strain growth, BacTiter-Glo luminescence, 24 h; at 10 µM; active compounds read high
row,Compound,inhibition
1,O=C(NCC1(N2CCCCC2)CCCCC1)c1cc([N+](=O)[O-])ccc1Cl,inactive: -8.64%
2,CN1[C@@H]2CC[C@H]1CC(OC(=O)C(O)(c1ccccc1)c1ccccc1)C2 (some centres undefined),inactive: -14.4%
3,CC(C)N1C(=O)CC2(CCN(CCOC(=O)C(O)(c3ccccc3)c3ccccc3)CC2)C1=O,inactive: -23.5%
4,COc1cc(SC)ccc1C(=O)NCC1(N(C)C)CCCCC1,inactive: 6.58%
5,CCN(CC)CC(C)C(C)OC(=O)C(O)(c1ccccc1)c1ccccc1 (centres undefined),inactive: -5.77%
6,Cc1ccc(C(=O)NCC2(N3CCCCC3)CCCCC2)cc1,inactive: 5.67%
7,CN(C)c1ccc(C(=O)NCC2(N(C)C)CCCCC2)cc1,inactive: -7.69%
8,CN(C)C1CCCC1OC(=O)C(O)(c1ccccc1)c1ccccc1 (centres undefined),inactive: -4.5%
9,Cc1ccccc1C(=O)NCC1(N2CCCCC2)CCCCC1,inactive: 24%
10,O=C(NCC1(N2CCCCC2)CCCCC1)c1cc(F)c(F)cc1Cl,inactive: -2.44%
11,C=CCN1CCN(CCOC(=O)C(O)(c2ccccc2)c2ccccc2)CC1,inactive: -3.42%
12,O=C(NCC1(N2CCCCC2)CCCCC1)c1cccc(Br)c1,inactive: -18.4%
13,CCN1CCCC(OC(=O)C2(O)c3ccccc3C=Cc3ccccc32)C1 (centres undefined),inactive: 3.59%
14,Cc1cc(C(=O)NCC2(N3CCCCC3)CCCCC2)ccc1[N+](=O)[O-],inactive: 1.12%
15,COc1ccc(C(=O)NCC2(N(C)C)CCCCC2)cc1,inactive: -4.15%
16,CN(C)C1(CNC(=O)c2ccc(Br)cc2)CCCCC1,inactive: -8.75%
17,COc1cc(C(=O)NCC2(N(C)C)CCCCC2)c([N+](=O)[O-])cc1OC,inactive: -3.24%
18,COc1ccc(Cl)cc1C(=O)NCC1(N(C)C)CCCCC1,inactive: -4.99%
19,COc1cccc(C(=O)NCC2(N3CCCCC3)CCCCC2)c1,inactive: -8.7%
20,O=C(NCC1(N2CCCCC2)CCCCC1)c1cccc(Cl)c1,inactive: -14.3%
21,O=C(OC1CN2CCC1CC2)C(CO)(c1ccccc1)c1ccccc1 (centres undefined),inactive: -2.3%
22,COc1ccc(Br)c(C(=O)NCC2(N3CCCCC3)CCCCC2)c1,inactive: -2.76%
23,CN(C)c1cccc(C(=O)NCC2(N(C)C)CCCCC2)c1,inactive: -6.09%
24,CC(C)Oc1ccc(C(=O)NCC2(N(C)C)CCCCC2)cc1,inactive: -12.2%
